These results are taken from patent CN103110576A, “一种香菇多糖注射液制剂及其制备方法” (HEBEI KAISHENG MEDICAL TECHNOLOGY Co Ltd, priority 2013, dated 2013).

This data set relates to guinea pig [豚鼠]. Put plainly: Active systemic anaphylaxis test in guinea pigs. Particulars: positive control, challenge with 1% human albumin, 6 animals. In kind it is in vivo.

For “人血白蛋白: 阳性对照:人血白蛋白(20%),广东卫伦生物制药有限公司,批号:20060824”, the “allergic reaction after challenge” value is “均呈极强阳性反应”.
